Where “and” joins values, the source holds several entries; their conditions need not be identical. Identical values can stand only once.
System: dermal capillaries of normal human skin maintained alive
Test: Vascular modulation (vasodilation/vasoconstriction) in a model of normal human skin maintained alive; histological morphometry of dermal capillaries
Format: cell-based
Settings: 5 μM CGRP in culture medium, 48 hours organ culture
Excerpt: The object of this study is to analyse the effect on vascular modulation, namely vasodilation or vasoconstriction, of the essential oil of Laserpitium siler L. evaluated in a model of normal human skin maintained alive.
Calcitonin-gene related peptide (CGRP), which induces vasodilation, and noradrenalin, which induces vasoconstriction, are used as positive controls.
The analyses are histological by morphometric quantification of the calibre of the dermal capillaries and semi-quantitative evaluation of the oedema.
Fragments of normal human skin are obtained from a plastic surgery. They are placed in inserts, which are themselves positioned on culture wells. Culture medium specifically adapted to survival maintenance is added to the bottom of the wells, a passage being made by slow diffusion between the two compartments via a porous membrane (3 μm). […]
The skin fragments are fixed in Bouin liquid and included in paraffin. After staining with haemalum-eosin, two criteria are evaluated on the dermis: the oedema and the calibre of the capillaries.
After staining with haemalum-eosin, the vascular dilation is evaluated by counting the number of dilated blood vessels on the entire histological slice (16 fields at magnification 40). […]
A mean is calculated for each parameter from the results obtained on the six skin samples. […]

Substance: Calcitonin-gene related peptide [CGRP]
- percentage of dilated vessels (dilated capillaries) (mean of six skin samples, control skin 74.8 ± 20.8): 90.5% and 90.5 ± 9.38%
- mean area occupied by the lumen of the blood vessels (capillaries) in the dermis (control skin 153.6 ± 74.4): 242.7 μm^2 and 242.7 ± 42.8 μm^2
